The results in this text go back to US11980209B2, “Consumables” (GIVAUDAN SA, priority 2007, dated 2024).

In the experiment the test system is perceived sweet taste (sweet sensitive panelists). The experiment in a line: Ranking test of 2 ppm NHDC in water (Example 7). In kind it is in vivo, human. Conditions: 2 ppm NHDC in water vs 0.5% sucrose; critical values 35.39-64.61%. The procedure: A 2 ppm NHDC in water sample was evaluated for its isointensity to 0.5 and 1% sucrose solutions using the ranking method described in example 3b.

Molecule `COc1ccc(CCC(=O)c2c(O)cc(O[C@@H]3O[C@H](CO)[C@@H](O)[C@H](O)[C@H]3O[C@@H]3O[C@@H](C)[C@H](O)[C@@H](O)[C@H]3O)cc2O)cc1O` [NHDC, Neohesperidin dihydrochalcone] displayed a R-index of 41%.
